In patent US8361796B2, “Method for generating primate cardiovascular progenitor cells for clinical use from primate embryonic stem cells or embryonic-like state cells, and their applications” (Assistance Publique—Hopitaux de Paris, priority 2008, dated 2013):

Test system: HUES-1 cells embryoid bodies (EBs)
Experiment: Gene expression in embryoid bodies from BMP2-challenged HUES-1 cells
Format: cell-based, human
From the text: To test whether BMP2-induced HES cell commitment was translated into a process of cardiac differentiation and to envision the differentiation scenario that might take place in vivo, control or BMP2-challenged HUES-1 cells were allowed to aggregate to form embryoid bodies (EBs). Gene expression was then monitored in day 2 and day 5 EBs. […] Similar results were obtained using I6 cell line.

B1: BMP2: Human recombinant BMP2, cardiogenic morphogen (protein, UniProt P12643 283-396, looked up)
Bone morphogenetic protein 2: QAKHKQRKRLKSSCKRHPLYVDFSDVGWNDWIVAPPGYHAFYCHGECPFPLADHLNSTNHAIVQTLVNSVNSKIPKACCVPTELSAISMLYLDENEKVVLKNYQDMVVEGCGCR
- induction in gene expression in EBs (day 2 EBs, cells pretreated with BMP2): two fold induction
- Oct-4 expression in EBs (day 5 EBs generated from BMP2-treated ES cells): downregulated and almost absent
- increase of expression of mesodermal and cardiac genes in EBs (day 5 EBs, cells pretreated with BMP2): 3 to 10 folds
